Read-outs that look alike come from different tables or passages of the source.
How the values were obtained:
Bombesin BB1 [1] = target: T1, Bombesin BB1 (Homo sapiens, UniProt P28336); assay: Bombesin BB1 radioligand binding; set-up: expressed in transfected cells; host or cells: CHO cells; conditions: read-out: Concurrent IC50 (reference compound); batch 147475
From the text: The percentage of concentration represents the concentration strength of the particular concentrate tested; that is, the strength of concentration relative to the Morinda citrifolia fruit juice from which the concentrate was obtained. […] The following materials and methods were utilized in the Bombesin research. [table]

By UniProt entry, the sequences of proteins in these tests, tags left out. Where a name states a change or a piece, a line headed by the entry shows the natural chain unless it says otherwise.
UniProt P28336: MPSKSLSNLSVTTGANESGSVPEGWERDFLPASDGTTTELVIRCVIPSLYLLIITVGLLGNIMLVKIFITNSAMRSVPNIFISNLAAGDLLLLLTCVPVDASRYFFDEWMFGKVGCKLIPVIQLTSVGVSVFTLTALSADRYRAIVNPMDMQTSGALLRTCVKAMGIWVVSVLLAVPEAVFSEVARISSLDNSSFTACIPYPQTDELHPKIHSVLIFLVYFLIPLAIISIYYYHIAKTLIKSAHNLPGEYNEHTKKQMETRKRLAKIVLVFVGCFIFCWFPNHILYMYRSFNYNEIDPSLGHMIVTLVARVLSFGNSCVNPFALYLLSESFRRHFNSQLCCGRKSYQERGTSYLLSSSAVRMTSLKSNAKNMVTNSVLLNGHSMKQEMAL

Bombesin BB1 [2] = target: T1, Bombesin BB1; conditions: historical value, cited from earlier work

Substance: Neuromedin B
- IC50 (Bombesin BB1 [1]): 0.0206 nM
- IC50 (Bombesin BB1 [2]; read-out: Historical IC50 (reference compound)): 0.017 nM
- Ki (Bombesin BB1 [2]; read-out: Historical Ki (reference compound)): 0.0081 nM

Reference: US20070154579A1, “Morinda Citrifolia Based Formulation And Methods For Weight Management” (priority 2005, published 2007)
